From PubChem BioAssay (NCI)
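Cultured in 96-well plates, cells were exposed to test compound for 48 hours across five concentrations. At the GI50, growth is halved. Definition used: TGI = concentration required for complete inhibition of growth.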

Key:
Assay in all cases: NCI-60 cell line screen, 48 h
[1] = system: MDA-MB-231 breast
[2] = system: MOLT-4 leukemia
[3] = system: T-47D breast
[4] = system: K-562 leukemia
[5] = system: HOP-92 NSCLC
[6] = system: CCRF-CEM leukemia
[7] = system: HCT-15 colon
[8] = system: MCF7 breast
[9] = system: HS 578T breast
[10] = system: A549 NSCLC
[11] = system: SF-295 CNS
[12] = system: UACC-62 melanoma
[13] = system: U251 CNS
[14] = system: IGROV1 ovarian
[15] = system: BT-549 breast
[16] = system: MDA-N
[17] = system: MALME-3M melanoma
[18] = system: COLO 205 colon
[19] = system: 786-0 renal
[20] = system: SW-620 colon
[21] = system: OVCAR-8 ovarian
[22] = system: ACHN renal
[23] = system: HL-60(TB) leukemia
[24] = system: HT29 colon
[25] = system: HCC-2998 colon
[26] = system: OVCAR-4 ovarian
[27] = system: NCI-H522 lung
[28] = system: NCI/ADR-RES ovarian
[29] = system: SK-MEL-5 melanoma
[30] = system: UACC-257 melanoma
[31] = system: LOX IMVI melanoma
[32] = system: SNB-19 CNS
[33] = system: SK-OV-3 ovarian
[34] = system: OVCAR-5 ovarian
[35] = system: HCT-116 colon
[36] = system: CAKI-1 renal
[37] = system: SR leukemia
[38] = system: RPMI-8226 leukemia
[39] = system: SF-268 CNS
[40] = system: RXF 393 renal
[41] = system: OVCAR-3 ovarian
[42] = system: PC-3 prostate
[43] = system: NCI-H23 lung
[44] = system: SK-MEL-2 melanoma
[45] = system: SK-MEL-28 melanoma
[46] = system: TK-10 renal
[47] = system: M14 melanoma
[48] = system: NCI-H322M lung
[49] = system: SN12C renal
[50] = system: MDA-MB-435
[51] = system: NCI-H460 lung
[52] = system: KM12 colon
[53] = system: DU-145 prostate
[54] = system: NCI-H226 lung
[55] = system: EKVX NSCLC
[56] = system: UO-31 renal
[57] = system: A498 renal
[58] = system: SF-539 CNS
[59] = system: HOP-62 NSCLC
[60] = system: SNB-75 CNS

CCCCCCCCCCCCCCCC[C@H]1C[N+](C)(C)CCO[P@](C)(=O)O1 gave a GI50 [1] of 2.67 µM, a TGI [1] of 9.83 µM and a GI50 [2] of 3.63 µM. It also gave a TGI [2] of 28.5 µM, a GI50 [3] of 20.4 µM and a TGI [3] of 43.4 µM. The GI50 [4] was 9.84 µM, the TGI [4] was 47.5 µM and the GI50 [5] was 1.92 µM. For the same compound, the TGI [5] was 6.88 µM, the GI50 [6] was 2.35 µM and the TGI [6] was 11 µM. The GI50 [7] was 14.1 µM, the TGI [7] was 29.2 µM and the GI50 [8] was 12.1 µM. The TGI [8] was 29.7 µM, the GI50 [9] was 9.57 µM and the TGI [9] was 30.9 µM. The GI50 [10] was 7.13 µM, the TGI [10] was 23.8 µM and the GI50 [11] was 4.26 µM. The TGI [11] was 16.2 µM, the GI50 [12] was 9.4 µM and the TGI [12] was 25.7 µM. For the same compound, the GI50 [13] was 1.73 µM, the TGI [13] was 3.42 µM and the GI50 [14] was 2.02 µM. The TGI [14] was 5.99 µM, the GI50 [15] was 5.56 µM and the TGI [15] was 16.8 µM. For the same compound, the GI50 [16] was 17.6 µM, the TGI [16] was 33.8 µM and the GI50 [17] was 15.4 µM. For the same compound, the TGI [17] was 30.1 µM, the GI50 [18] was 2.04 µM and the TGI [18] was 4.46 µM. It also gave a GI50 [19] of 2.89 µM, a TGI [19] of 7.72 µM and a GI50 [20] of 12.1 µM. The TGI [20] was 28.2 µM, the GI50 [21] was 7.52 µM and the TGI [21] was 24.4 µM. It also gave a GI50 [22] of 11.5 µM, a TGI [22] of 27 µM and a GI50 [23] of 1.6 µM. The TGI [23] was over 100 µM, the GI50 [24] was 2.98 µM and the TGI [24] was 11.9 µM. For the same compound, the GI50 [25] was 2.15 µM, the TGI [25] was 4.7 µM and the GI50 [26] was 8.03 µM. For the same compound, the TGI [26] was 25.2 µM, the GI50 [27] was 3.08 µM and the TGI [27] was 12.8 µM. For the same compound, the GI50 [28] was 25.4 µM, the TGI [28] was 62.2 µM and the GI50 [29] was 12.4 µM. For the same compound, the TGI [29] was 27.7 µM, the GI50 [30] was 19 µM and the TGI [30] was 39.7 µM. The GI50 [31] was 3.88 µM, the TGI [31] was 15.8 µM and the GI50 [32] was 3.62 µM. The TGI [32] was 13.3 µM, the GI50 [33] was 16.2 µM and the TGI [33] was 33.8 µM. It also gave a GI50 [34] of 2.57 µM, a TGI [34] of 7.58 µM and a GI50 [35] of 6.96 µM. For the same compound, the TGI [35] was 22.1 µM, the GI50 [36] was 6.76 µM and the TGI [36] was 23.6 µM. It also gave a GI50 [37] of 3.04 µM, a TGI [37] of 13.8 µM and a GI50 [38] of 2.19 µM. For the same compound, the TGI [38] was 7.23 µM, the GI50 [39] was 4.15 µM and the TGI [39] was 15.7 µM. For the same compound, the GI50 [40] was 1.7 µM, the TGI [40] was 3.68 µM and the GI50 [41] was 5.72 µM. For the same compound, the TGI [41] was 19.6 µM, the GI50 [42] was 2.11 µM and the TGI [42] was 4.99 µM. It also gave a GI50 [43] of 7.1 µM, a TGI [43] of 22.3 µM and a GI50 [44] of 18.3 µM. The TGI [44] was 37.1 µM, the GI50 [45] was 17.5 µM and the TGI [45] was 33.5 µM. For the same compound, the GI50 [46] was 2.35 µM, the TGI [46] was 6.63 µM and the GI50 [47] was 12.9 µM. For the same compound, the TGI [47] was 26.5 µM, the GI50 [48] was 13.9 µM and the TGI [48] was 27.3 µM. It also gave a GI50 [49] of 6.43 µM, a TGI [49] of 20.2 µM and a GI50 [50] of 15.2 µM. The TGI [50] was 29.2 µM, the GI50 [51] was 2.53 µM and the TGI [51] was 6.71 µM. For the same compound, the GI50 [52] was 5.34 µM, the TGI [52] was 10.9 µM and the GI50 [53] was 11.7 µM. For the same compound, the TGI [53] was 24.3 µM, the GI50 [54] was 2.64 µM and the TGI [54] was 11.1 µM. It also gave a GI50 [55] of 18 µM, a TGI [55] of 38.1 µM and a GI50 [56] of 14.5 µM. The TGI [56] was 29.8 µM, the GI50 [57] was 6.12 µM and the TGI [57] was 22.6 µM. For the same compound, the GI50 [58] was 6.19 µM, the TGI [58] was 20.6 µM and the GI50 [59] was 4.49 µM. It also gave a TGI [59] of 18.2 µM, a GI50 [60] of 2 µM and a TGI [60] of 6.46 µM.
